Results from US20150185215A1, “Cell-Based Assays For Post-Translational Enzyme Activity” (Cell Assay Innovations, Inc., priority 2012, published 2015).

Sequences of proteins named here, by UniProt entry; tags and fusion partners are left off. A change or cut given only in a name is not applied to a line headed by its entry.
UniProt Q9P1W9: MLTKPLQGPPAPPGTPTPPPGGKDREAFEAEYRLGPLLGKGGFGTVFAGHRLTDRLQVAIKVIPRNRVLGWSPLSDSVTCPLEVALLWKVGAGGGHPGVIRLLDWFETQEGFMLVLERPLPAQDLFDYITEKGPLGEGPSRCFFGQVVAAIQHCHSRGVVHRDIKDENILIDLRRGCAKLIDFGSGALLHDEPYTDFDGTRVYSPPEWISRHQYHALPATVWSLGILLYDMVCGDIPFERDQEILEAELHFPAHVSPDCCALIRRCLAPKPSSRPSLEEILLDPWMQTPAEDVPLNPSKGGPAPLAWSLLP

Molecular target: Pim-2 (Homo sapiens, UniProt Q9P1W9)
Assay: Pim-2 Ser/Thr kinase BAD-FLAG transphosphorylation ELISA in transiently transfected HEK293F cells
Type: cell-based
Settings: HEK293F cells co-expressing Pim-2 and BAD-FLAG, 2 hours compound treatment, Phospho-BAD (Ser112) detection; read-out: IC50, phosphorylation of BAD

IC50: ~10 µM
SMILES: CN1CCC(CNc2ccc3ncc(-c4cccc(OC(F)(F)F)c4)n3n2)CC1 [SGI-1776]
